Measurements as given in US20250186411A1, “Methods of Treating Disorders Associated with Overactivation of IKKB” (The United States Government as represented by the …, priority 2023, published 2025).

System: KLF15
Assay: Cell survival in KLF15 knockdown (KLF15-shRNA) versus EV-shRNA podocytes
Conditions: for cell survival in KLF15-shRNA podocytes: KLF15 knockdown; for cell survival in EV-shRNA podocytes: control podocytes

SMILES	cell survival in KLF15-shRNA podocytes	cell survival in EV-shRNA podocytes
CSc1ccc(NC(=O)c2ccc(O)cc2)cc1 [BT501]	lost	improved cell survival
CSc1ccc(NC(=O)Nc2ccc(C#N)cn2)cc1 [BT502]	lost	improved cell survival
CSc1ccc(NC(=O)Nc2ccc(C)nc2)cc1 [BT503]	lost	improved cell survival
